# Membrane permeability of cyclic peptides

Values of Naylor et al. 2018, doi:10.1021/acs.jmedchem.8b01259, as listed in CycPeptMPDB.

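Conditions beyond the assay type are not listed; see the original paper. Other peptides of the study may be missing here. Peptides that the database sets to -10, its floor, are left out.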

PAMPA is the parallel artificial membrane permeability assay, which has no cells and reads passive diffusion. RRCK values come from monolayers of low-efflux MDCK cells. Permeability is given as log10 of P in cm/s; higher (less negative) is more permeable.

compound	PAMPA (log10 cm/s)	RRCK (log10 cm/s)
CC(C)C[C@@H]1NC(=O)[C@H](CC(C)C)N(C)C(=O)[C@@H](CC(C)C)N(C)C(=O)[C@H](C)NC(=O)[C@H](Cc2ccccc2)N(C)C(=O)[C@H]2CCCN2C1=O	-5.03	-4.60
CC(C)C[C@@H]1NC(=O)[C@H](Cc2ccccc2)N(C)C(=O)[C@H]2CCCN2C(=O)[C@H](CC(C)C)NC(=O)[C@H](C)N(C)C(=O)[C@@H](C)N(C)C1=O	-5.08	-4.73
CC(C)C[C@@H]1NC(=O)[C@H](Cc2ccccc2)NC(=O)[C@H]2CCCN2C(=O)[C@H](CC(C)C)NC(=O)[C@H](CC(C)C)NC(=O)[C@@H](CC(C)C)NC1=O	-4.99	-5.06
CC[C@@H]1C(=O)N(C)[C@@H](CC(C)C)C(=O)N[C@@H](CC(C)C)C(=O)N2CCC[C@@H]2C(=O)N(C)[C@@H](CC2CCCCC2)C(=O)N[C@@H](CC(C)C)C(=O)N1C	-6.10	-4.90
C/C=C/C[C@@H](C)[C@@H](O)[C@H]1C(=O)N[C@@H]([C@@H](C)O)C(=O)N(C)CC(=O)N(C)[C@@H](CC(C)C)C(=O)N[C@@H](C(C)C)C(=O)N(C)[C@@H](CC(C)C)C(=O)N[C@@H](C)C(=O)N[C@H](C)C(=O)N(C)[C@@H](CC(C)C)C(=O)N(C)[C@@H](CC(C)C)C(=O)N(C)[C@@H](C(C)C)C(=O)N1C	-5.81	-6.34
CC(C)C[C@@H]1C(=O)N(C)[C@@H](CC(C)C)C(=O)N[C@@H](C)C(=O)N2CCC[C@@H]2C(=O)N(C)[C@@H](Cc2ccccc2)C(=O)N[C@@H](C)C(=O)N1C	-5.10	-4.57
CC(C)C[C@@H]1NC(=O)[C@H](Cc2ccccc2)N(C)C(=O)[C@H]2CCCN2C(=O)[C@H](CC(C)C)NC(=O)[C@H](C)N(C)C(=O)[C@@H](CC(C)C)N(C)C1=O	-5.16	-4.64
CC(C)C[C@@H]1NC(=O)[C@H](CC(C)C)N(C)C(=O)[C@@H](CC(C)C)N(C)C(=O)[C@H](CC(C)C)NC(=O)[C@H](Cc2ccccc2)N(C)C(=O)[C@@H](C)N(C)C1=O	-6.34	-4.90
CC[C@@H]1C(=O)N(C)[C@@H](CC2CCCCC2)C(=O)N[C@@H](CC2CCCCC2)C(=O)N2CCC[C@@H]2C(=O)N(C)[C@@H](Cc2ccc(O)cc2)C(=O)N[C@@H](CC(C)C)C(=O)N1C	-6.67	-5.90
CC[C@H]1C(=O)N[C@@H](CC(C)C)C(=O)N2CCC[C@@H]2C(=O)N(C)[C@@H](Cc2ccc(O)cc2)C(=O)N[C@@H](CC(C)C)C(=O)N(C)[C@H](C)C(=O)N1C	-5.38	-5.35
CC(C)C[C@@H]1NC(=O)[C@H](Cc2ccc(O)cc2)N(C)C(=O)[C@H]2CCCN2C(=O)[C@H](CC(C)C)NC(=O)[C@H](CC(C)C)N(C)C(=O)[C@@H](Cc2ccccc2)N(C)C1=O	-5.80	-5.16
CC[C@@H]1C(=O)N(C)[C@@H](CC)C(=O)N[C@@H](CC(C)C)C(=O)N2CCC[C@@H]2C(=O)N(C)[C@@H](Cc2ccccc2)C(=O)N[C@@H](CC(C)C)C(=O)N1C	-4.98	-4.49
CC(C)C[C@@H]1NC(=O)[C@H](Cc2ccc(O)cc2)NC(=O)[C@H]2CCCN2C(=O)[C@H](CC2CCCCC2)NC(=O)[C@H](CC2CCCCC2)NC(=O)[C@@H](C)NC1=O	-5.08	-5.85

2 of these entries, quoted again:

{"smiles": "CC(C)C[C@@H]1NC(=O)[C@H](Cc2ccccc2)N(C)C(=O)[C@H]2CCCN2C(=O)[C@H](CC(C)C)NC(=O)[C@H](C)N(C)C(=O)[C@@H](C)N(C)C1=O", "PAMPA (log10 cm/s)": "-5.08", "RRCK (log10 cm/s)": "-4.73"}
{"smiles": "CC(C)C[C@@H]1C(=O)N(C)[C@@H](CC(C)C)C(=O)N[C@@H](C)C(=O)N2CCC[C@@H]2C(=O)N(C)[C@@H](Cc2ccccc2)C(=O)N[C@@H](C)C(=O)N1C", "PAMPA (log10 cm/s)": "-5.10", "RRCK (log10 cm/s)": "-4.57"}